7 molecules from patent US9139587B2, “N1-pyrazolospiroketone acetyl-CoA carboxylase inhibitors” (Pfizer Inc., priority 2009, dated 2015) can be followed below.

The chains behind the UniProt entries cited, without tags or fusion partners.
UniProt O00763, whole entry V2141I: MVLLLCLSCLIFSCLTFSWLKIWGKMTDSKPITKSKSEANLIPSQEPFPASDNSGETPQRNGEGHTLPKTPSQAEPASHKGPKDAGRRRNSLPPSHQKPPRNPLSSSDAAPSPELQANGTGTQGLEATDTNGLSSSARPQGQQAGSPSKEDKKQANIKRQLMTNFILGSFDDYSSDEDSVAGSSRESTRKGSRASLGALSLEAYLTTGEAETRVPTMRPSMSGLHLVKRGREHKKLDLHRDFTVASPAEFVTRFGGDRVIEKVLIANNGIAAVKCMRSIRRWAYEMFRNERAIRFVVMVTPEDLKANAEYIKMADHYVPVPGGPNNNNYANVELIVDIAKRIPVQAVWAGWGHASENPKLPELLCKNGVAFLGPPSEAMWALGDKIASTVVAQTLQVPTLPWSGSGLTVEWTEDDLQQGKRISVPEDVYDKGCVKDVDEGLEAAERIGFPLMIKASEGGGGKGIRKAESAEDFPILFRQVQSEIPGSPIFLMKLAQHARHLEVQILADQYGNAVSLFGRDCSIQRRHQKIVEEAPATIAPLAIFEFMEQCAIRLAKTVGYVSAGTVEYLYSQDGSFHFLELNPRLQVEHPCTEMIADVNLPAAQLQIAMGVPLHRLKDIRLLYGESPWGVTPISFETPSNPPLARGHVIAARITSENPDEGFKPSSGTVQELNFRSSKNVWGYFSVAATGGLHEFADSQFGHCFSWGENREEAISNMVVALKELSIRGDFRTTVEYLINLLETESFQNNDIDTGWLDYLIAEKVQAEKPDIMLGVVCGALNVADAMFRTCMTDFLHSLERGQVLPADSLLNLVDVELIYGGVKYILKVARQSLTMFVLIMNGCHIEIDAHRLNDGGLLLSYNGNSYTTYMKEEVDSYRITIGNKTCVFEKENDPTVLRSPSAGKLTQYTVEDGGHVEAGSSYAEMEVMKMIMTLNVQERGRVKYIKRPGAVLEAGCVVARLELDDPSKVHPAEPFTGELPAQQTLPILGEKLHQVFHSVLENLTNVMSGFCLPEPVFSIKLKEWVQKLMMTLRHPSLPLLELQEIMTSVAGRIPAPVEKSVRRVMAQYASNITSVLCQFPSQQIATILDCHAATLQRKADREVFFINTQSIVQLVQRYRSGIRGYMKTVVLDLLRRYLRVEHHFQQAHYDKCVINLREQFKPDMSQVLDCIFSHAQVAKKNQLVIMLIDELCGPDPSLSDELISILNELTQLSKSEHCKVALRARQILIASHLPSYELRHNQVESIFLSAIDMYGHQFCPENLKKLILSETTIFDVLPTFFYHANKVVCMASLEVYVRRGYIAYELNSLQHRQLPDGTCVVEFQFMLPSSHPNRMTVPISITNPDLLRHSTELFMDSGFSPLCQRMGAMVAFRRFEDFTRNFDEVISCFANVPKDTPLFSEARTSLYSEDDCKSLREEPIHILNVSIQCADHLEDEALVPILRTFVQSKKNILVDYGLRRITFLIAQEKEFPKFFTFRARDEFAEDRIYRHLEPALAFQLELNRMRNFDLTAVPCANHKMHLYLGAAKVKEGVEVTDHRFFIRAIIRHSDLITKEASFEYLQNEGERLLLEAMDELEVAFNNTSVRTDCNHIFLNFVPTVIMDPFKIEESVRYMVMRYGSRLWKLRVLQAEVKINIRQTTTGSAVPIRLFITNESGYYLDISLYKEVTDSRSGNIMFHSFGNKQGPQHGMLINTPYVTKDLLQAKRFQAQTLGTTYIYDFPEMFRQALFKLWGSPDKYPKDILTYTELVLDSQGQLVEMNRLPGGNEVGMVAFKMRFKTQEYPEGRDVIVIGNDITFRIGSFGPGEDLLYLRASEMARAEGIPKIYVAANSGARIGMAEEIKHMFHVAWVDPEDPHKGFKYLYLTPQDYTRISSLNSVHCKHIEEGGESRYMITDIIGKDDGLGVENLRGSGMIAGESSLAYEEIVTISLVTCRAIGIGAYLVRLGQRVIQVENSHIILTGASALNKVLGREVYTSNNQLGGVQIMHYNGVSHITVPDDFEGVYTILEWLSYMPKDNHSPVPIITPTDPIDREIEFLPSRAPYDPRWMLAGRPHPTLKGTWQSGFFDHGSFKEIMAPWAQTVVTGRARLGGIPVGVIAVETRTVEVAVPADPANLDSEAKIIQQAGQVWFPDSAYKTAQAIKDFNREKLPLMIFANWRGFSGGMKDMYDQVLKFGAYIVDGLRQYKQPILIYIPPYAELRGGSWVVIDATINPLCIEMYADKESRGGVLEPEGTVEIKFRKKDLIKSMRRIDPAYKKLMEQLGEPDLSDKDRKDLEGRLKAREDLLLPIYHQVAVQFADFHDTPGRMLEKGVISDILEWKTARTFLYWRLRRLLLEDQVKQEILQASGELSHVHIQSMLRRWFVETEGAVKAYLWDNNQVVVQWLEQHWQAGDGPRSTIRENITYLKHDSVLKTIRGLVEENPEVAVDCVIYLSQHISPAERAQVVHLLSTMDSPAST

Assay [1] concerns the target recombinant human ACC1 (rhACC1) (Homo sapiens, UniProt Q13085, DEL44-44). In words: recombinant hACC1 Transcreener assay (direct inhibition of ACC1 activity). Type of assay: biochemical. The settings on record: read-out: hACC1, Transcreener ADP detection FP assay, 50 μM ATP, 30 μM acetyl-CoA, 120 min at 25° C. As to the method: For example direct inhibition of ACC activity, for the compound of Formula (1) was determined using preparations of recombinant human ACC1 (rhACC1) and recombinant human ACC2 (rhACC2). Representative sequences of the recombinant human ACC1 and ACC2 that can be used in the assay are provided in FIG. 1 (SEQ ID NO. 1) and FIG. 2 (SEQ. ID NO. 2), respectively. Preparation of rhACC1. Two liters of SF9 cells, infected with recombinant baculovirus containing full length human ACC1 cDNA, were suspended in ice-cold lysis buffer (25 mM Tris, pH 7.5; 150 mM NaCl; 10% glycerol; 5 mM imidazole (EMD Bioscience; Gibbstown, N.J.); 2 mM TCEP (BioVectra; Charlottetown, Canada); Benzonase nuclease (10000 U/100 g cell paste; Novagen; Madison, Wis.); EDTA-free protease inhibitor cocktail (1 tab/50 mL; Roche Diagnostics; Mannheim, Germany). Cells were lysed by 3 cycles of freeze-thaw and centrifuged at 40,000×g for 40 minutes (4° C.). Supernatant was directly loaded onto a HisTrap FF crude column (GE Healthcare; Piscataway, N.J.) and eluted with an imidazole gradient up to 0.5 M over 20 column volumes (CV). ACC1-containing fractions were pooled and diluted 1:5 with 25 mM Tris, pH 7.5, 2 mM TCEP, 10% glycerol and direct loaded onto a CaptoQ (GE Healthcare) column and eluted with an NaCl gradient up to 1 M over 20 CV's. Phosphate groups were removed from purified ACC1 by incubation with lambda phosphatase (100 U/10 μM target protein; New England Biolabs; Beverly, Mass.) for 14 hours at 4° C.; okadaic acid was added (1 μM final concentration; Roche Diagnostics) to inhibit the phosphatase. Purified ACC1 was exchanged into 25 mM Tris, pH 7.5, 2 mM TCEP, 10% glycerol, 0.5 M NaCl by 6 hour dialysis at 4° C. Aliquots were prepared and frozen at −80° C. […] The final conditions for the assay were 50 mM HEPES, pH 7.2, 10 mM MgCl2, 7.5 mM tripotassium citrate, 2 mM DTT, 0.1 mg/mL BSA, 30 μM acetyl-CoA, 50 μM ATP, and 10 mM KHCO3 Typically, a 10 μl reaction was run for 120 min at 25° C., and 10 μl of Transcreener stop and detect buffer was added and the combination incubated at room temp for an additional 1 hour. The data was acquired on a Envision Fluorescence reader (Perkinelmer) using a 620 excitation Cy5 FP general dual mirror, 620 excitation Cy5 FP filter, 688 emission (S) and a 688 (P) emission filter.

The target in assay [2] is recombinant human ACC2 (rhACC2) (Homo sapiens, UniProt O00763, V2141I). Kind of assay: recombinant hACC2 Transcreener assay (direct inhibition of ACC2 activity). The settings on record: read-out: hACC2, Transcreener ADP detection FP assay, 50 μM ATP, 30 μM acetyl-CoA, 50 min at 25° C. The procedure:
For example direct inhibition of ACC activity, for the compound of Formula (1) was determined using preparations of recombinant human ACC1 (rhACC1) and recombinant human ACC2 (rhACC2). Representative sequences of the recombinant human ACC1 and ACC2 that can be used in the assay are provided in FIG. 1 (SEQ ID NO. 1) and FIG. 2 (SEQ. ID NO. 2), respectively.
[3] Preparation of rhACC2. Human ACC2 inhibition was measured using purified recombinant human ACC2 (hrACC2). Briefly, a full length Cytomax clone of ACC2 was purchased from Cambridge Bioscience Limited and was sequenced and subcloned into PcDNA5 FRT TO-TOPO (Invitrogen, Carlsbad, Calif.). The ACC2 was expressed in CHO cells by tetracycline induction and harvested in 5 liters of DMEM/F12 with glutamine, biotin, hygromycin and blasticidin with 1 μg/mL tetracycline (Invitrogen, Carlsbad, Calif.). The conditioned medium containing ACC2 was then applied to a Softlink Soft Release Avidin column (Promega, Madison, Wis.) and eluted with 5 mM biotin. 4 mgs of ACC2 were eluted at a concentration of 0.05 mg/mL (determined by A280) with an estimated purity of 95% ([…]). The purified ACC2 was dialyzed in 50 mM Tris, 200 mM NaCl, 4 mM DTT, 2 mM EDTA, and 5% glycerol. The pooled protein was frozen and stored at −80° C., with no loss of activity upon thawing. For measurement of ACC2 activity and assessment of ACC2 inhibition, test compounds were dissolved in DMSO and added to the rhACC2 enzyme as a 5× stock with a final DMSO concentration of 1%.
[4] Measurement of human ACC2 inhibition. hACC2 was assayed in a Costar #3676 (Costar, Cambridge, Mass.) 384-well plate using the Transcreener ADP detection FP assay kit (Bellbrook Labs, Madison, Wisconsin) using the manufacturer's recommended conditions for a 50 uM ATP reaction. The final conditions for the assay were 50 mM HEPES, pH 7.2, 5 mM MgCl2, 5 mM tripotassium citrate, 2 mM DTT, 0.1 mg/mL BSA, 30 μM acetyl-CoA, 50 μM ATP, and 8 mM KHCO3 Typically, a 10 μl reaction was run for 50 min at 25° C., and 10 μl of Transcreener stop and detect buffer was added and the combination incubated at room temp for an additional 1 hour. The data was acquired on an Envision Fluorescence reader (Perkinelmer) using a 620 excitation Cy5 FP general dual mirror, 620 excitation Cy5 FP filter, 688 emission (S) and a 688 (P) emission filter.

The mark [3] stands for this setting: tested form: free base (may be converted to hydrochlo).

SMILES strings stand for the structures. Like-named read-outs stand apart in the source and are kept apart here.

For the molecule `CC(C)n1ncc2c1C(=O)CC1(CCN(C(=O)c3ccc4cccnc4c3O)CC1)C2`, the IC50 in assay [1] is 516 nM; in assay [2], 139 nM.
As for `CC(C)n1ncc2c1C(=O)CC1(CCN(C(=O)c3ccc4c(c3)C(=O)NCC4)CC1)C2`, the IC50 was 97.3 nM in assay [1] and 34.1 nM in assay [2].
Taken in the same sequence, the figures for `CNc1cc(C(=O)N2CCC3(CC2)CC(=O)c2c(cnn2C(C)C)C3)ccn1` were 795 nM and 287 nM.
With `CC(C)n1ncc2c1C(=O)CC1(CCN(C(=O)c3cnc4[nH]ccc4c3)CC1)C2`, the values for the IC50 in assay [1] and in assay [2] were 43.8 nM and 42.4 nM, respectively.
In the case of `CC(C)n1ncc2c1C(=O)CC1(CCN(C(=O)c3ccc4[nH]c(=O)n(C)c4c3)CC1)C2`, the IC50 in assay [1] (setting [3]) was found to be 269 nM; in assay [2] (setting [3]), 64.1 nM.
Regarding `CC(C)n1ncc2c1C(=O)CC1(CCN(C(=O)c3ccc(-c4cn[nH]c4)cc3)CC1)C2`, the results for the IC50 in assay [1] and in assay [2] were 128 nM and 47.3 nM, respectively.
Taken in the same sequence, the figures for `Cc1cccc2c(=O)cc(C(=O)N3CCC4(CC3)CC(=O)c3c(cnn3C(C)(C)C)C4)[nH]c12` were 40.9 nM and 26.8 nM.
